{"sequences": {"note": "Amino acid sequences for entries named in this document (tags omitted).", "UniProt P10275, whole entry, species assumed": "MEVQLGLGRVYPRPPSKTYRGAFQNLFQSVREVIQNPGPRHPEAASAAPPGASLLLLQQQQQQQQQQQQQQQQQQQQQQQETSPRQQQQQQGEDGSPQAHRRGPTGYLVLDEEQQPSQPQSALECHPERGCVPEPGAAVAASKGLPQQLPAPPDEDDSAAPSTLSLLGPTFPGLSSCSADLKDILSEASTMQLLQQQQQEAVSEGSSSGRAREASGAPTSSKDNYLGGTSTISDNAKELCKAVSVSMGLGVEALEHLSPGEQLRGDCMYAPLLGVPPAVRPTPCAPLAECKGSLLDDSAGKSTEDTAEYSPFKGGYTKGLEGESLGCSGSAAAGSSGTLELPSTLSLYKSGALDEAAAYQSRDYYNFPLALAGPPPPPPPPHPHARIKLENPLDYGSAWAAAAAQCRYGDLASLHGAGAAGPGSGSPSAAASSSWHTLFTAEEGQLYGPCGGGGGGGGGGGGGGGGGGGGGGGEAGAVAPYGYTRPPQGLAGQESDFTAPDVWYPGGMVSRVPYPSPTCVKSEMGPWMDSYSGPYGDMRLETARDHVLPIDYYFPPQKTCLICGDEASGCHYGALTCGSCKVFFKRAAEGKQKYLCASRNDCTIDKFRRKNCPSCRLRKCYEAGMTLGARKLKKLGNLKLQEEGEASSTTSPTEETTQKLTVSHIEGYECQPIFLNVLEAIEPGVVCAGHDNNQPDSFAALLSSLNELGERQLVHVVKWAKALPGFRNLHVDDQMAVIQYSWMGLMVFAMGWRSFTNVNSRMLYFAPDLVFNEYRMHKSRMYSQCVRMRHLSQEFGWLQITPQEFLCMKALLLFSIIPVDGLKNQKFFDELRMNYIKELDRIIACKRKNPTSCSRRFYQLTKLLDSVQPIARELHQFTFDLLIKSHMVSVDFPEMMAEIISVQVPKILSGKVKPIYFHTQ"}, "source": "patent US20040043420A1", "about": "“Method of identifying conformation-sensitive binding peptides and uses thereof” (priority 2003, published 2004)", "molecular_target": "androgen receptor (Homo sapiens, UniProt P10275)", "assay": "Yeast two-hybrid screening of unbiased X15 peptide library, ligand-induced β-galactosidase activity (FIG. 3, Table 503)", "type": "cell-based", "set-up": "expressed in transfected cells; host or cells: Saccharomyces cerevisiae PJ69-4α", "data": [{"sequence": "EFRFPFHEMVREWESMGLERVRYAEP [M4D1]", "values": [{"measurement": "Fold induction", "value": ">2"}]}]}
